Patent US5688773A, “Method of selectively destroying neoplastic cells” (priority 1994, dated 1997)

Experiments:
C6-P450 cells [1] = assay: Trypsinization and replating assay; type: cell-based, rat
Description: Trypsinization and replating assay: To determine the temporal kinetics of CPA-mediated cytotoxicity, 2×10^6 cells were plated onto each 10 cm dish. Twenty-four hours later, 0.5 mM CPA was added and cells were incubated for the times indicated in each figure. Cells were then trypsinized and replated at a density of 2×10^5 cells/10 cm dish. Nine days later, cell numbers were evaluated by Coulter counting.

C6-P450 cells [2] = assay: Cell proliferation assay
[3] = tested on: C6 cells exposed to CM from C6-P450; assay: C6 colony formation after conditioned medium from drug-exposed cells

In the case of `CCN(CC)P1(=O)NCCCO1` (stereo not drawn) [DCPA, didechlorocyclophosphamide], the “Proliferation of treated cells after replating” value (C6-P450 cells [1]) is reported as “had no effect”, the “Trypsinization and replating assay, cell count” value (C6-P450 cells [1]) is reported as 21.29±0.17 and the “Cell proliferation assay, number of cells” value (C6-P450 cells [2]) is reported as 22.57±0.44 ×10^6. The “Effect on cell proliferation” value (C6-P450 cells [2]) was “had no effect”, the “Secretion effect, C6 colony number” value [3] was 5±0.9 and the “Toxicity of conditioned medium to C6 cell growth / colony formation” value [3] was “highly toxic”.
